In patent US20250122183A1 (Pfizer Inc., priority 2023, published 2025) one finds Ki data, which are given here for one molecule.

Protein sequences, listed by entry. Tags and fused reporters are not part of them. Chains listed by the source or under a name are the forms on record and can include a tag or linker.
UniProt Q92794, other isoform, or with tags, fused parts or gaps: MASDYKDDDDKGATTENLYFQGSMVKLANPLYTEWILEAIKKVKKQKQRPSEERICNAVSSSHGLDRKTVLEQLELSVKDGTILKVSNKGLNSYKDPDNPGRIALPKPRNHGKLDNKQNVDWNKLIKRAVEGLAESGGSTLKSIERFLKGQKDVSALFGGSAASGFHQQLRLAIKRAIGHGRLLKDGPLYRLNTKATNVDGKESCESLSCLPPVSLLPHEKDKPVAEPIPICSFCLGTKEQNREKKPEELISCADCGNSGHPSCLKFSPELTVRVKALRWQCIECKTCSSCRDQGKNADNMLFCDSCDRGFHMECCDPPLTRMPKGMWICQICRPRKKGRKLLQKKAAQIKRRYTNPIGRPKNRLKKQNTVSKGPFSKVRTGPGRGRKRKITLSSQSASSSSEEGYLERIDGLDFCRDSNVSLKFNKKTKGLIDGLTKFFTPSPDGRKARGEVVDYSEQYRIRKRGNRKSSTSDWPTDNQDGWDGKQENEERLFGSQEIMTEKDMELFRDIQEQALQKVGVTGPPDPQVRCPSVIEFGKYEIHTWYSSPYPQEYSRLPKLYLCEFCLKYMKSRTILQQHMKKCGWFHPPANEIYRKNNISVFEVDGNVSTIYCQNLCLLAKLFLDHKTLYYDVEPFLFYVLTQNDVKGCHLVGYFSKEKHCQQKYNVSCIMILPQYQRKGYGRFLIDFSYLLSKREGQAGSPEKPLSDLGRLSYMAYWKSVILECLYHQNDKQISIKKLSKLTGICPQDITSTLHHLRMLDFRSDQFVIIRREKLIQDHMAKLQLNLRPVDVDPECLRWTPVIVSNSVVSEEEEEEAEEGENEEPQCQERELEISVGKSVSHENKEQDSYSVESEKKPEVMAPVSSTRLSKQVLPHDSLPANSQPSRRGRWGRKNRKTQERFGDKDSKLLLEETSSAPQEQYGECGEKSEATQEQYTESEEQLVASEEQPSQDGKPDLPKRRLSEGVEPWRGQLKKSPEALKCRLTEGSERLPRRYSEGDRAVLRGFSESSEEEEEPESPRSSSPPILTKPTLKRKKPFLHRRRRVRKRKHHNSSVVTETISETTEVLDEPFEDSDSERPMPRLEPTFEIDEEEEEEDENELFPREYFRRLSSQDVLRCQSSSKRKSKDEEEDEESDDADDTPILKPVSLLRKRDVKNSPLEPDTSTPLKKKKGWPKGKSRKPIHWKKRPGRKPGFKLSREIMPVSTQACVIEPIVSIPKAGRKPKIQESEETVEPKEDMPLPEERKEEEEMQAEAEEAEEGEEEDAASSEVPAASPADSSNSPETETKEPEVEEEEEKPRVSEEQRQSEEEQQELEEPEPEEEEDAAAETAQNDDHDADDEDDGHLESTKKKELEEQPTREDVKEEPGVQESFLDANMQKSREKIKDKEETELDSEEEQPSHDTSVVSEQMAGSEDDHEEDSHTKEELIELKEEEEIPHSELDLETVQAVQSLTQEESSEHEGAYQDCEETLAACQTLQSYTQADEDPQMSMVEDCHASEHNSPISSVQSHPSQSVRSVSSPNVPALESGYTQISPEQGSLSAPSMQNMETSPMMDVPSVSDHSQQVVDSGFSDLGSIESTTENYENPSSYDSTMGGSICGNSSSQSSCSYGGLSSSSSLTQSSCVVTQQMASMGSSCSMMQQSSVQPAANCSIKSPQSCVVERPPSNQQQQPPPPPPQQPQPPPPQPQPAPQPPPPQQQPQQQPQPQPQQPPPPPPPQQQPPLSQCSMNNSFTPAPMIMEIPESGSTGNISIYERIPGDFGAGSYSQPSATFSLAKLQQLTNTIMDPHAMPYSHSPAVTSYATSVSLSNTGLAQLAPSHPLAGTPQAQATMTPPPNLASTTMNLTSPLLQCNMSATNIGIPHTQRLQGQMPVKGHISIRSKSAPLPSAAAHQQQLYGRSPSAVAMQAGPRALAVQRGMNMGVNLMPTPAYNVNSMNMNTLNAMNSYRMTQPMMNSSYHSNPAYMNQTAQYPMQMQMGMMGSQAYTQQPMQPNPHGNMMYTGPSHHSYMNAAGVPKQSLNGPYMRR

Assay [1] concerns the target KAT6A Full length enzyme (Homo sapiens (Human), UniProt Q92794). The assay is described as follows: KAT6A assay (SAMDI-MS acetylation of H3 1-21 peptide). Particulars: Morrison equation fit; replicate number in parentheses. It counts as biochemical.
The target of assay [2] is KAT7+JADE1+EAF6+ING5 4 protein complex (Homo sapiens (Human), UniProt O95251). Briefly: KAT7 JADE1 assay (SAMDI-MS acetylation of H3 1-21 peptide). Format: biochemical. Particulars: Morrison equation fit; replicate number in parentheses.

Each structure is given as a SMILES string.

Consider `COc1cc2c(NS(=O)(=O)c3c(OC)cc(C4CCN(C5COC5)CC4)cc3OC)noc2cc1Nc1cc(C2CC2)n[nH]1` [Example 164, N-{6-[(3-cyclopropyl-1H-pyrazol-5-yl)amino]-5-methoxy-1,2-benzoxazol-3-yl}-2,6-dimethoxy-4-[1-(oxetan-3-yl)piperidin-4-yl]benzene-1-sulfonamide], for which the Ki was found to be 0.8 nM in assay [1] and 4.1 nM in assay [2].
